Tested on: anti-MBP purified from CSF of MS patients
Assay: In vitro neutralization of purified anti-MBP (liquid phase assay, then solid phase radioimmunoassay)
Format: binding, human
Settings: negative antigen controls, concentrations as high as 1000 ng
Description: Purified MBP was coupled to CNBr-activated Sepharose 4B (Pharmacia™) according to the manufacturer's instructions. Purified CSF IgG containing increased anti-MBP levels from 35 patients with acute MS relapses was used to isolate anti-MBP by MBP-Sepharose affinity chromatography (Warren, K. G. and Catz, I., J Neurol Sci 103:90-96, 1991). Purified anti-MBP samples were compared with the initial IgG source by poly-acrylamide gel electrophoresis. When purified anti-MBP samples were absorbed to zero with MBP, the post-absorption supernatants contained no residual IgG indicating the purity of anti-MBP.
Constant amounts of anti-MBP (15 radioactivity binding units corresponding to 100 for scale expansion purposes=% 0) were incubated with increasing amounts of h-MBP (0-1000 ng) or individual peptides of MBP (0-10,000 ng) in a liquid phase assay and after 1.5 hours incubation, free anti-MBP levels were determined in all mixtures. […]
Anti-MBP levels were determined by a solid phase radioimmunoassay with human MBP (Warren, K. G. and Catz, I., Ann Neurol 209:20-25, 1986; Warren, K. G. and Catz, I., Ann Neurol 21:183-187, 1987; and Warren, K. G. and Catz, I., J Neurol Sci 91:143-151, 1989). Free anti-MBP levels were measured in all fractions from affinity chromatography and in all neutralization mixtures. […]

human serum albumin: negative antigen control [reference compound]
reaction with purified anti-MBP: did not react
